Apparent affinities of Ab-14 variants for a coronavirus HR2 peptide

Reference: Li et al. 2023, doi:10.1038/s41467-023-39022-2. File: FLAb, binding data.

All variants were tested on one target, the spike HR2 peptide PDVDLGDISGINAS (SARS-CoV-2).

Parent scFv Ab-14: VH joined to VL by three GGGGS repeats. Changes lie in the heavy chain CDRs alone.
VH: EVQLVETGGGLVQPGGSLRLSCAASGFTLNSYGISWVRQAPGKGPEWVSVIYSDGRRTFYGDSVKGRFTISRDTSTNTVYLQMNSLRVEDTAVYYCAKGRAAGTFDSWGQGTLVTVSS
VL: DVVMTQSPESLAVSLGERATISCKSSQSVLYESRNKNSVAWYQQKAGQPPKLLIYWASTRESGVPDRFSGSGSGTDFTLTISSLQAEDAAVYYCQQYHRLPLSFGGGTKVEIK

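The parent was found by panning a naive human phage display library on the peptide. Designed CDR sequences, proposed from the first random library and measured here. Group labels follow the data file (Ctrl: baseline library sampled from a position-specific scoring matrix, with some repeated check sequences; En: ensemble of fine-tuned language models; HC: hill climbing; Gen: genetic algorithm; Gibbs: Gibbs sampling; a sequence that several methods proposed may carry one label only). The scFvs were displayed on barcoded MATa yeast, the peptide on MATalpha yeast. Binding brings cells together so that they mate, and sequencing counts the barcode pairs among the diploids. Read counts were normalised to the haploid input and turned into Kd by a linear fit to BCL2-family pairs of known affinity, for each replicate. There are six technical replicates.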

Variants are written as CDR1, CDR2 and CDR3 of the heavy chain (limits as in the source). Parent: GFTLNSYGIS, VIYSDGRRTFYGDSVK, GRAAGTFDS. Variants here have more than six changes. Each Kd is an estimate from the mating assay, the geometric mean of the replicates in which the pair was seen; lower is stronger. An entry "no signal" has no value in the source: the pair was not observed among the diploids in any replicate. This suggests poor binding but is not conclusive. Of ten entries with the parent sequence, four were seen in most replicates (averages 2.2 nM to 240 nM), three in one and three in none, so single entries are noisy.

- GFDLNEYGIS, VIYADGMRTAYSDSVK, GNQAGTFDV [En_Gen]: no signal (0 of 6 replicates)
- GFDLEEMGVS, VIYADGIRTAYHQKVK, GQAAGTFDL [En_Gibbs]: 510 pM (6 of 6 replicates)
- GFDLGEYGIS, VIYADGSRSAYAKNVK, GGNVYKDAV [En_Gibbs]: 8.4 µM (1 of 6 replicates)
- GFDLNEYGIS, VIYADGRRTFYADSVK, GNAAGTFNV [En_HC]: 160 pM (6 of 6 replicates)
- GFDINEYGIS, VMYADGSRVVYRDNVK, GFQGGTFDM [En_Gibbs]: 8.0 nM (6 of 6 replicates)
- GFDLNEYGIS, VIYADGMRTAYADNVK, GKVAGTFDV [En_Gen]: 3.6 nM (6 of 6 replicates)
- GFDLDEMGIS, VIYADGQRAAYQGSVK, GTNNGNFNE [En_Gibbs]: 36 nM (1 of 6 replicates)
- GFDLEDYGIS, VIYADGMRTAYSDSVK, GENAGTFDV [En_Gen]: 850 pM (6 of 6 replicates)
- GFDLSEYGIS, VIYADGMRTAYADSVK, GQNAGTFDV [En_Gen]: 240 pM (5 of 6 replicates)
- GFDLEDYGIS, VIYADGMRTAYIDSVK, GEAAGTFDV [En_HC]: 2.9 nM (6 of 6 replicates)
- GFDLNEYGIS, VIYADGMRKAYADDVK, GGNAGTFDV [En_Gen]: 170 pM (5 of 6 replicates)
- GMNLDEFGIS, VIYADGRRTAYSDEVK, GEHGWFLTI [En_Gibbs]: no signal (0 of 6 replicates)
- GFDLNEYGIS, VIYADGMRQAYADSVK, GNVAGTFDV [En_Gen]: 200 pM (6 of 6 replicates)
- GDSLDEYGIS, VIYADGQRSFYADDVK, GEHDGLMFQ [En_Gibbs]: 3.5 µM (1 of 6 replicates)
- GFDLDEYGIS, VIYADGMRTAYTDSVK, GNNAGTFDM [En_Gen]: 960 pM (6 of 6 replicates)
- GFDLDEYGIS, VIYADGRRTFYADSVK, GTEAGTFDA [En_HC]: 880 pM (6 of 6 replicates)
- GIDLQEYGVS, VIYADGSRQSYADSVK, GQHAGYLDK [En_Gibbs]: 230 nM (1 of 6 replicates)
- GFDIEEYGIS, VIYADGVRAMYSSNFK, GKIAGTGLT [En_Gibbs]: no signal (0 of 6 replicates)
- GYDLNEYGIS, VIYADGRRVAYIDDVK, GHVSDHFAV [En_Gibbs]: no signal (0 of 6 replicates)
- GFDLQEYGIS, VIYADGKRRAYENKVK, GQSVRSVVI [En_Gibbs]: no signal (0 of 6 replicates)
- GFDLNEYGIS, VIYADGKRTAYSDSVK, GEIAGTFDQ [En_HC]: 1.6 nM (6 of 6 replicates)
- GENINEYGIS, VIYADGRRTAYAEDVK, GQSGGTIDT [En_Gibbs]: no signal (0 of 6 replicates)
- GFEIQEYGIS, VIYADGRRTAYAESVK, GTLAGTLST [En_Gibbs]: 680 pM (6 of 6 replicates)
- GFDLGEYGVS, VIYADGHRAAYTDNVK, GVESGSVQN [En_Gibbs]: no signal (0 of 6 replicates)
- GFDLDEYGIS, VIYADGRRTFYIDSVK, GETAGTFDK [En_HC]: 1.0 nM (6 of 6 replicates)
- GFDLEEYGIS, VIYADGMRVSYTNTVK, GQNSMISAT [En_Gibbs]: no signal (0 of 6 replicates)
- GFTVDLYGIS, VIYSDGERTFYDDSVR, SRAAGRFDH [Ctrl]: no signal (0 of 6 replicates)
- GFDLNEYGIS, VIYADGRRTFYSDSVK, GEIAGTFNQ [En_HC]: 400 pM (6 of 6 replicates)
- GFDLEKYGIS, VIYADGRRSVYADDVK, GMLGATNGV [En_Gibbs]: 10 nM (6 of 6 replicates)
- GFQIDEYGIS, VIYADGMRSGYKNSVK, NGFNVSGIV [En_Gibbs]: 260 nM (1 of 6 replicates)
- GFEIQDYGIS, VIYADGLRTQYSDKFK, GIIAGTINV [En_Gibbs]: 140 nM (4 of 6 replicates)
- GFDLNEYGIS, VIYADGMRTAYIDSVK, GNNAGTFDI [En_Gen]: 330 pM (6 of 6 replicates)
- GFDLNEYGIS, VIYADGRRTFYKDSVK, GQIAGTFDQ [En_HC]: 260 pM (6 of 6 replicates)

3 of these entries, quoted again:

- GFDLEDYGIS, VIYADGMRTAYSDSVK, GENAGTFDV [En_Gen] -> 850 pM (6 of 6 replicates)
- GFTVDLYGIS, VIYSDGERTFYDDSVR, SRAAGRFDH [Ctrl] -> no signal (0 of 6 replicates)
- GFDLDEYGIS, VIYADGRRTFYIDSVK, GETAGTFDK [En_HC] -> 1.0 nM (6 of 6 replicates)

A sequence measured in both rounds can read differently, since the two assays cover different ranges. The authors averaged sequences with at least three values out of six and counted those with two or fewer as poor binders. Three control strains display no target. For all heavy chain designs, 1% of the pairings with them gave a signal, with a median of 120 nM and one signal in twenty below 7.0 nM, so weak values seen in few replicates may be background.